Assay: surface tension by Du Noüy ring method, Krüss K20 EasyDyne tensiometer
Type: physicochemical
Conditions: 2.5 % w/w solvent in water, room temperature
Experimental: As used herein, the term “surface tension” refers to the force required to increase the unit area of a surface of a liquid or of an interface between two liquids or between a liquid and a gas, generally stated in units of dynes/cm. Surface tensions described herein are measured by the Du Noüy ring method utilizing an EasyDyne tensiometer model K20 marketed by Krüss USA, Matthews, N.C.
Surface tension of a fluid containing water was determined prior to and after mixing with various concentrations of various water soluble organic solvents in water. The water soluble organic solvents tested were: propylene glycol (Spectrum Chemicals, Gardena, Calif.), ethanol (Alfa Aesar, Ward Hill, Mass.), hexylene glycol (Ruger Chemicals, Linden, N.J.), ethoxydiglycol (Gattefossé USA, Paramus, N.J.), polyethylene glycol 400 (PEG 400) (Croda USA, Edison, N.J.), dimethyl isosorbide (DMI) (Croda, USA, Edison, N.J.) and glycerin (Spectrum Chemicals, Gardena, Calif.) as well as polyethylene glycol 200 NF (PEG 200) (Alfa Aesar, Ward Hill, Mass.), propylene carbonate (Spectrum Chemicals, Gardena Calif.), isopropyl alcohol (Spectrum Chemicals, Gardena Calif.), 1,3-propanediol (Spectrum Chemicals, Gardena Calif.) and polypropylene glycol (PPG-9) (Spectrum Chemicals, Gardena Calif.). […]

Surface tension: 54.2 dynes/cm
Compound: CC(C)O [Isopropyl Alcohol, isopropyl alcohol]
